The values that follow come from US20150314007A1, “LINKER-PAYLOAD MOLECULE CONJUGATES” (GLYKOS FINLAND OY, priority 2012, published 2015).

The test system of the data set is Human ovarian cancer cell line SKOV-3. In words: In vitro cytotoxicity, SKOV-3 cell viability (PrestoBlue). The settings on record: SKOV-3, applied to the cell culture medium.

In the case of “N-(6-O-propargyl-D-galactosyl)-MMAF [Compound 3]”, the “cytotoxicity compared with 1 (MMAF)” value is on record as “equally or only slightly less cytotoxic”.

For the substance “N-(6-azido-6-deoxy-D-galactosyl)-MMAF [Compound 4]”, the “cytotoxicity compared with 1 (MMAF)” value is reported as “equally or only slightly less cytotoxic”.
